EC50 data for one substance are collected here from patent US10556889B1, “Salvinorin derivatives” (Blue Sky Pharmaceuticals, LLC, priority 2018, dated 2020).

Amino acid sequences for entries named in this document (tags omitted).
UniProt P42866, whole entry: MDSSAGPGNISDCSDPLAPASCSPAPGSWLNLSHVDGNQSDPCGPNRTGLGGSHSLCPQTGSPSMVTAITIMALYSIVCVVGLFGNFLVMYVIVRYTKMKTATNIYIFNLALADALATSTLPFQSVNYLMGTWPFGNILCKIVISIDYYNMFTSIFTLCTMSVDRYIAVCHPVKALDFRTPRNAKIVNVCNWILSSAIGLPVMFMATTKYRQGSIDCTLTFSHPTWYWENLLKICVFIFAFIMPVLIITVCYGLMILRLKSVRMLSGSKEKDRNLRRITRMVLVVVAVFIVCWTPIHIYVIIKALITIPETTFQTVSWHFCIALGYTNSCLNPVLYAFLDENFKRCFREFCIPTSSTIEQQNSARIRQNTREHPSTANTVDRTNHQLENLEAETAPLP

Test [1] concerns the target T1, uOR (Mus musculus, UniProt P42866). Description: Agonist induced ERK 1/2 phosphorylation (efficacy and potency relative to DAMGO). The settings on record: read-out: Potency; amount required to produce the effect obtained with […] DAMGO or […] morphine; HEK-293 cells containing uOR.
Test [2] concerns the target T1, uOR. As to the kind of experiment: β-arrestin recruitment to uOR / receptor internalization. It is filed as cell-based. On the set-up: expressed in transfected cells. To be noted: read-out: β-arrestin Recruitment EC50 ± SEM. The source says: The data provided in Tables 1A and 1B below were obtained using standard analytical techniques known to those skilled in the art. Such techniques are described in detail in C.
[…] were transiently transfected (electroporation) with combinations of cDNA for hemagglutinin (HA-N terminus)-tagged uOR, beta-arrestin2 tagged with green fluorescent protein, mouse uOR tagged at the C terminus with yellow fluorescent protein and GRK-2. […] After addition of drug, cells were visualized using confocal microscopy. Multiple cells were recorded per dish after more than four separate transfection experiments—representative cells are shown in the manuscript.
The “β-arrestin Recruitment EC50±SEM” column in Table 2 below represents the degree to which each tested compound recruited beta-arrestin to interact with uOR. As will be appreciated by those skilled in the art, EC50 refers to the concentration of a drug which induces a response halfway between the baseline and maximum after a specified exposure time. In this instance, lower values indicate greater potency of the molecule, and this is […].
As will also be understood by those skilled in the art, “Max Fold Efficacy” refers to the maximum signal/background ratio that an agonist will induce or, conversely, that an antagonist will inhibit an agonist from inducing a response. […]
Background: Recruitment of arrestin is a read-out of receptor activation apart from second messengers.

For Met-Enkephalin [reference compound], the figures for the EC50 in test [1] and in test [2] were 0.674 nM and 441 ± 38.8 nM, respectively.
